# Publication PMC13031153 (Acta Pharmaceutica Sinica. B, 2025)
# Test system: δ/μ^N-terminal Chimera
# Type: cell-based, mouse
smiles,measurement,value
CN1CC[C@]23c4c5ccc(O)c4O[C@H]2[C@@H](O)C=C[C@H]3[C@H]1C5 [morphine],agonist-induced K^+ currents,abolished
